Test results: US7897758B2, “Activators for oligonucleotide and phosphoramidite synthesis” (dated 2011)

How the values were obtained:
[1] = background statement; cited from earlier work
[2] = Explosion hazards, method A.14 of directive 92/69/EEC (thermal sensitivity, shock, friction); conditions: steel tube test, Fallhammertest, GLP laboratory, BAM

Compound | classification as explosive in Germany [1] | explosion hazards: thermal sensitivity, mechanical sensitivity to shock and to friction [2]
CCSc1nnn[nH]1 | Category C explosive | 
FC(F)(F)c1cc(-c2nn[nH]n2)cc(C(F)(F)F)c1 |  | neither thermally nor mechanically sensitive
